Values joined by “and” are separate entries in the source; they are usually repeats but may differ in a detail not shown here. Identical values can stand only once.
Key:
Experiment in all cases: FcγR ELISA
[1] = target: histidine-tagged extracellular domain of human Fc gamma receptor IIb/c (Pichia pastoris produced) (human) (UniProt P31994)
[2] = target: FcγRIIIa-V158 (Pichia pastoris produced) (UniProt P08637)
[3] = target: FcγRIIa extracellular domain (Pichia pastoris produced) (human) (UniProt P12318)
[4] = target: FcγRIIIa-F158 (Pichia pastoris produced) (UniProt P08637)

| fold increase in affinity vs commercial HUMIRA [1] | fold increase in affinity vs commercial HUMIRA [2] | fold increase in affinity vs commercial HUMIRA [3] | fold increase in affinity vs commercial HUMIRA [4] | Substance |
| --- | --- | --- | --- | --- |
| 2 fold | 1.8 fold and 2 fold | – | – | anti-TNF IgG1 wildtype antibody (GFI774) produced in GFI 5.0 |
| – | – | 30 fold | 13 fold and 15 fold | anti-TNF IgG1 wildtype antibody (GFI774) produced in GFI 5.0 (antibody; other documents disagree on this pair) |
